Experimental data from ChEMBL document CHEMBL1136094, “Novel, potent and selective cyclin D1/CDK4 inhibitors: indolo[6,7-a]pyrrolo[3,4-c]carbazoles” (Bioorg Med Chem Lett, 2003).

Chains of the proteins cited; added tags and fusions are not shown. A line that says so, or that is headed by a name, gives the form on record, which may keep a tag or linker.
HCT-116, as listed by the source: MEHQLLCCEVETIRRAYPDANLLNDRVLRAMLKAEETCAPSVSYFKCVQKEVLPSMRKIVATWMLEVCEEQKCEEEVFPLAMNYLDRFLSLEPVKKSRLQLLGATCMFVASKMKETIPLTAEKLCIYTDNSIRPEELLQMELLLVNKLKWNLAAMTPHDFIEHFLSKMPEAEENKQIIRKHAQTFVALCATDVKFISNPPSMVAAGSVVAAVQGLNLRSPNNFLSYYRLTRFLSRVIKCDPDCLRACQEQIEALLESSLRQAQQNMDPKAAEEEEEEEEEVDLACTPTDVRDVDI

Tested on: HCT-116
Assay: Inhibition of Rb21 phosphorylation by Cyclin D1-cyclin-dependent kinase 4
Type: functional

COc1ccc2c3c4c(c5c(ccc6ccn(C)c65)c3n(CCN[C@H]3CC[C@H](O)CC3)c2c1)C(=O)NC4=O
Fold increase: 1.8
